Measurements from PubChem BioAssay (NCI).
The entries are a selection whose mix differs from that of the whole data set. Some tests of the compounds listed are not included; inactive here does not mean inactive elsewhere. A structure can be active in one record and inactive in another. Activity calls are given as the source filed them. No stated cut-off is given here; in the data, active means growth inhibition above about 70%; inactive means the rest.

Columns and labels:
[1] = NCI Yeast Anticancer Drug Screen. Data for the rad50 strain (AID 155);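 further: 0% = growth of vehicle-only cultures of the same strain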; conditions: S. cerevisiae rad50 strain growth inhibition, active compounds read high
[2] = NCI Yeast Anticancer Drug Screen. Data for the mec2-1 strain (AID 157); conditions: S. cerevisiae mec2-1 strain, active compounds read high
[3] = NCI Yeast Anticancer Drug Screen. Data for the sgs1 mgt1 strain (AID 161);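 further: 0% = growth of cultures given vehicle only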; conditions: S. cerevisiae sgs1 mgt1 strain, active compounds read high
[4] = NCI Yeast Anticancer Drug Screen. Data for the cln2 rad14 strain (AID 165);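 further: 0% = growth equal to vehicle treated cultures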; conditions: S. cerevisiae cln2 rad14 strain, active compounds read high
[5] = NCI Yeast Anticancer Drug Screen. Data for the bub3 strain (AID 167); conditions: S. cerevisiae bub3 mutant strain, active compounds read high
[6] = NCI Yeast Anticancer Drug Screen. Data for the mlh1 rad18 strain (AID 175); conditions: S. cerevisiae mlh1 rad18 strain growth inhibition, active compounds read high
[7] = at 5.0 µM (retest, dose inferred, filed as 0.5)
[8] = at 50.0 µM (retest, dose inferred, filed as 5.0)

| Compound | growth inhibition [1, 7] | growth inhibition [1, 8] | growth inhibition ([1]; at 50.0 µM) | growth inhibition [2, 7] | growth inhibition [2, 8] | growth inhibition ([2]; at 50.0 µM) | growth inhibition [3, 7] | growth inhibition [3, 8] | growth inhibition ([3]; at 50.0 µM) | growth inhibition [4, 7] | growth inhibition [4, 8] | growth inhibition ([4]; at 50.0 µM) | growth inhibition [5, 7] | growth inhibition [5, 8] | growth inhibition ([5]; at 50.0 µM) | growth inhibition [6, 7] | growth inhibition [6, 8] | growth inhibition ([6]; at 50.0 µM) |
| --- | --- | --- | --- | --- | --- | --- | --- | --- | --- | --- | --- | --- | --- | --- | --- | --- | --- | --- |
| C=C(C)C#CC(O)(C(=O)OC1CCN(C)CC1)C1CCCC1 (configuration not stated) | inactive: -2% | inactive: 51% | active: 70.1% | inactive: -2% | inactive: 35% | inactive: 44.3% | inactive: 21% | inactive: 53% | inactive: 68.8% | inactive: 20% | inactive: 67% | inactive: 59.1% | inactive: 3% | inactive: 60% | inactive: 59.2% | inactive: 17% | inactive: 30% | inactive: 62.9% |
| CCCC/C=C\C(O)(C(=O)OC1CN2CCC1CC2)c1ccccc1 (configuration not stated) |  |  | inactive: 21.4% |  |  | inactive: 2.45% |  |  | inactive: -16.6% |  |  | inactive: 4.9% |  |  | inactive: 0.05% |  |  | inactive: 13.8% |
| C/C=C\C(O)(C(=O)OC1CN2CCC1CC2)C1CCCCC1 (configuration not stated) |  |  | inactive: 50.8% |  |  | inactive: 31% |  |  | inactive: 51% |  |  | inactive: 35.6% |  |  | inactive: 41.8% |  |  | inactive: 56.6% |
| C/C=C\C(O)(C(=O)O[C@@H]1C2CCN(CC2)[C@@H]1C)C1CCCC1 (some centres not stated) |  |  | inactive: 38.5% |  |  | inactive: 19.1% |  |  | inactive: 27.6% |  |  | inactive: 12.9% |  |  | inactive: 24.4% |  |  | inactive: 34.1% |
| O=C(CCCN1CCC(OC(=O)C(O)(c2ccccc2)C2CCCC2)CC1)c1ccccc1 (configuration not stated) | inactive: 33% | active: 96% | inactive: 56.9% | inactive: 24% | active: 93% | inactive: 46.6% | inactive: 29% | active: 96% | inactive: 65.7% | inactive: 16% | active: 97% | active: 79.3% | inactive: 9% | active: 97% | active: 76.8% | inactive: 34% | active: 97% | active: 88.8% |
| CC#CC(O)(C#CC)C(=O)OC1CN2CCC1CC2 (configuration not stated) |  |  | inactive: 7.65% |  |  | inactive: 7.95% |  |  | inactive: 13.4% |  |  | inactive: 13.2% |  |  | inactive: 1.85% |  |  | inactive: 12.6% |
| CC(C)C(O)(C(=O)OCC1=CC2CCN1CC2)c1ccccc1 (configuration not stated) |  |  | inactive: 34.8% |  |  | inactive: 25.8% |  |  | inactive: -3.2% |  |  | inactive: -4.85% |  |  | inactive: 1.3% |  |  | inactive: 2.55% |
| ClCCN(CCCl)CCCc1ccccc1 |  |  | inactive: -4.2% |  |  | inactive: 21.4% |  |  | inactive: 18.1% |  |  | inactive: -2.35% |  |  | inactive: 5.2% |  |  | inactive: 42.6% |
| CN(CCBr)CCBr | active: 99% | active: 100% | active: 85% | active: 100% | active: 100% | active: 88.2% | active: 99% | active: 100% | active: 91.5% | active: 98% | active: 99% | active: 90.9% | active: 99% | active: 100% | active: 92.2% | active: 99% | active: 100% | active: 93.4% |
| CN1CCC(OC(=O)C(O)(C#Cc2ccccc2)c2ccccc2)CC1 (configuration not stated) |  |  | inactive: -8.9% |  |  | inactive: -13.3% |  |  | inactive: -16.1% |  |  | inactive: -1.8% |  |  | inactive: -11.2% |  |  | inactive: -27.8% |
| CN1CCCC(OC(=O)C(O)(c2ccccc2)C2CCCC2)C1 (configuration not stated) |  |  | inactive: 22.1% |  |  | inactive: 21.2% |  |  | inactive: -4.7% |  |  | inactive: -9.65% |  |  | inactive: 24.5% |  |  | inactive: 29% |
